In publication PMC10566475, “A cell-active cyclic peptide targeting the Nrf2/Keap1 protein–protein interaction” (Chemical Science, 2023):
Several values for one entry are separate records, joined by “and”; a condition that tells them apart may be missing. Equal entries are not always repeated.

The chains behind the UniProt entries cited, without tags or fusion partners. Residues count along the entry.
UniProt Q14145, 321-609: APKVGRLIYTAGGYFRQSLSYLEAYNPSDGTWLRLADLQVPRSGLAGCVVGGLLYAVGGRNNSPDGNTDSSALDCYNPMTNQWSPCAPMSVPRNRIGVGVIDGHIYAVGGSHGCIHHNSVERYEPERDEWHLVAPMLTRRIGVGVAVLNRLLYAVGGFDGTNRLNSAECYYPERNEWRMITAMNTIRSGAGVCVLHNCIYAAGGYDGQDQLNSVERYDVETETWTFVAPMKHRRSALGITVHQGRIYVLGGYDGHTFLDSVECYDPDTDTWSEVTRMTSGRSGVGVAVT
UniProt Q14145, whole entry: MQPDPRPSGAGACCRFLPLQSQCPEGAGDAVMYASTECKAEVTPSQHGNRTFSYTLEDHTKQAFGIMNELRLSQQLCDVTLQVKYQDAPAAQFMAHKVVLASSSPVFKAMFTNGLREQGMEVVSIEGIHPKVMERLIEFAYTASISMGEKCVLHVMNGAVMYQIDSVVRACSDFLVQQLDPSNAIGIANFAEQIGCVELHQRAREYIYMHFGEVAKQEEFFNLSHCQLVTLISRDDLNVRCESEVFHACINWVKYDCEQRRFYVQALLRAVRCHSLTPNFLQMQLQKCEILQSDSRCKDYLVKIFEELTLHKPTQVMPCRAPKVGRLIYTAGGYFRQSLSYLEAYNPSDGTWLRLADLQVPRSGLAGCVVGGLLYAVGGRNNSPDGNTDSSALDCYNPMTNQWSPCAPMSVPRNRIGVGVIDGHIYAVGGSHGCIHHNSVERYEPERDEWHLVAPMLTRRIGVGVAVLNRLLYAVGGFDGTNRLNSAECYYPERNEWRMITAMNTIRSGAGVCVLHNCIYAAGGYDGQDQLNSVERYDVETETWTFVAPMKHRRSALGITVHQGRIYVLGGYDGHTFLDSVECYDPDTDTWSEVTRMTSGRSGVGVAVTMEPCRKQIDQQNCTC

How the values were obtained:
[1] = target: T1, human Keap1 Kelch domain (A321-T609) (Homo sapiens, UniProt Q14145); assay: Surface plasmon resonance (SPR) direct binding assay, immobilised Keap1 Kelch domain; conditions: Table 2
T1 construct: human Keap1 Kelch domain (A321-T609) fused with N-terminal 6x His-tag; 6xHis (N); made in house
Description: (§1) We based the design of our Nrf2-like cyclic peptides around the amino acid sequence of the ETGE motif (namely 12-mer ^73QLQLDEETGEF^84L) and SAR studies reported in the literature.[9,10,12,14] The […] motif is known to adopt a beta-turn conformation upon binding to Keap1. Residues Q73-Q75 and L85 stabilise the bound conformation, L76-D77 and E79-G81 bind deep into the pocket with E79 and E82 forming electrostatic interactions with Keap1 and D77 and T80 stabilising the beta-turn via H-bonds with E78 not contributing to the binding. In particular, our peptides aim to retain the beta-turn conformation and featured the E78P mutation which has been reported to improve the binding affinity.[9] […] The ability of the cyclic peptides to bind to the Kelch domain of Keap1 was evaluated using surface plasma resonance (SPR), where the Kelch domain is immobilised onto a SPR sensor chip. Additionally, we assessed the ability of the peptides to inhibit the PPI between Nrf2 and the Kelch domain of Keap1 using a time-resolved FRET (TR-FRET) assay. Here, the IC50 for inhibition of the interaction between the human Keap1 Kelch domain and an Nrf2-ETGE peptide is measured.
(§2) Surface Plasmon Resonance (SPR)
(§3) Peptide affinities to the Kelch domain of Keap1 is determined in a direct binding assay using 8K surface plasmon resonance (SPR) biosensor (Cytiva) at 20°C. Immobilization of Keap1 Kelch domain on a CM5 sensor chip (Cytiva) is performed using standard amine coupling procedure. The surface is washed with 10mM NaOH, 1M NaCl before activated with EDC/NHS (Cytiva), followed by immobilization of human Keap1 Kelch domain (A321-T609) fused with N-terminal 6x His-tag7 (in 10 mM MES, pH=6.4).
(§4) Finally, the surface is deactivated by Ethanolamine. Immobilization levels are typically 5000-6000 RU.
(§5) The reference spot is treated as described, omitting the injection of Keap1. Compound concentration series are injected over the immobilized protein in increasing concentrations using single cycle kinetics (SCK) in running buffer (10 mM HEPES, 150 mM NaCl, 0.05% Tween20, 1 mM TCEP, pH 7.4). A 1:1 Langmuir interaction model is fitted to the experimental traces, enabling determination of kon, koff and […]
(§6) In the time-resolved Förster resonance energy transfer (TR-FRET) assay8 the IC50 of inhibitors which are able to inhibit the interaction between the Keap1-Kelch domain and a Nrf2 derived ETGE peptide are determined. The TR-FRET is measured between a Tb-labelled mAb (Anti—6-His, Tb cryptate Gold, CisBio 61H12TLB) that binds to Keap 1 Kelch domain and d2-labelled SA-biotin-peptide.
(§7) The assay was performed in 384-well white low-volume, medium binding plates (Greiner Bio One, Austria) in 20 mM HEPES pH 7.5, 150 mM NaCl, 2 mM GSH (Sigma-Aldrich, USA),1mM EDTA (Sigma-Aldrich, USA), and 0.01% Pluronic F127 (MilliporeSigma, USA), with a final reaction volume of 10 µL.
(§8) To determine the ability of synthesized peptide to inhibit PPI between the Keap1 Kelch domain and Nrf2, 1nM purified human Keap1 Kelch domain (A321-T609) fused with N-terminal 6x His-tag, 5 nM biotinylated Nrf2 peptide ([…], Genescript, USA), d2-labeled streptavidin (Revvity, USA), and […] anti-His monoclonal antibody tagged with terbium cryptate (Revvity, USA), were incubated in the presence of varying concentrations of investigated peptides for 3 h at room […]
(§9) 7 Li X, Zhang D, Hannink M, Beamer LJ. Crystallization and initial crystallographic analysis of the Kelch domain from human Keap1. Acta
(§10) 8 S. Lee, D. Ali Abed, L. J. Beamer, L. Hu, Development of a Homogeneous Time-Resolved Fluorescence Resonance Energy Transfer (TR-
FRET) Assay for the Inhibition of Keap1–Nrf2 Protein–Protein Interaction, SLAS Discovery, 26, 1, 2021, Pages 100-112, ISSN 2472-

[2] = target: T2, interaction between the human Keap1 Kelch domain and an Nrf2-ETGE peptide (Homo sapiens, UniProt Q14145); assay: Keap1-Nrf2 TR-FRET (HTRF) assay; assay type: binding; conditions: Table 2; IC50, minimum of three repeats; read-out: TR-FRET
T2 construct: 1nM purified human Keap1 Kelch domain (A321-T609) fused with N-terminal 6x His-tag; made in house
Description: as §1, §2, §3, §4, §5, §6, §7, §8, §9, §10
FRET) Assay for the Inhibition of Keap1–Nrf2 Protein–Protein Interaction, SLAS Discovery, 26, 1, 2021, Pages 100-112, ISSN 2472- […]
Following the incubation, the PHERAstar FSX […] microplate reader was used to measure the acceptor and donor emissions at 665 nm and 620 nm, respectively. The acceptor/donor ratio was used to calculate relative energy transfer. […]

[3] = target: NQO1 gene expression in BEAS-2B cells (Homo sapiens); assay: BEAS-2B NQO1 assay (qPCR of NQO1 mRNA); assay type: cell-based; conditions: EC50 of NQO1 mRNA upregulation, 24 h, medium without FBS, read-out: BEAS2b
Description: The effect of peptides on Nrf2-dependent gene expression was investigated in BEAS-2B cells, where we determined the upregulation of the mRNA of NAD(P)H quinone dehydrogenase (NQO1) by qPCR. The expression of NQO1 is Nrf2-dependent and it is one of the two major quinone reductases, which play a crucial role in protecting cells from oxidative stress.[40] ^§§ In the context of this study we chose BEAS-2B cells as a representative model for epithelial cells. The presence of serum has been reported to affect BEAS-2B cell phenotype. Specifically, exposure of BEAS-2B to FBS has been associated with squamous differentiation, alteration in cytokine secretion and response to toxicants.[42–44] […] The lack of activity of the peptides is unsurprising considering the overall negative net charge, which will obstruct their cellular uptake. In order to improve the cellular uptake, we took of advantage of the 2C-PS moiety, which not only allows the easy synthesis of a variety of macrocycles of different ring sizes, but also permits the facile introduction of a diverse set of moieties, which could enhance cell permeability. We pursued a diverse set of strategies to make the Keap1 peptide more cell permeable, namely: masking of the acidic amino acids with methyl esters, introduction of polyarginine peptides, GWWG-polyarginine peptides or a long-chain fatty acid tag onto the staple, as well as peptide shortening and a combination of these. The rationale behind these strategies is explained herein, and details of their synthesis can be found in the ESI. ^†
Cellular Biology Experimental
(Thermo Fisher Scientific, USA).
calculated using QunatStudio 7 software.

## CCCCCCCCCCCCCCCCCC(=O)NCCCC[C@H](NC(=O)COCCOCCn1cc(COCCOCCNc2nc3cc(n2)CCSC[C@@H](C(=O)N[C@@H](CC(C)C)C(N)=O)NC(=O)[C@H](CCC(=O)O)NC(=O)CNC(=O)[C@H]([C@@H](C)O)NC(=O)[C@H](CCC(=O)O)NC(=O)[C@@H]2CCCN2C(=O)[C@H](CC(=O)O)NC(=O)[C@@H](NC(C)=O)CSCC3)nn1)C(=O)NCCOCCOCC(=O)NCCOCCOCC(N)=O [Peptide P8-H]
[1]
  koff: 0.005 s⁻¹
  kon: 160000 M⁻¹ s⁻¹
[1]; geometric mean ± sd of at least two independent repeats
  Kd: 32 ± 1.9 nM
[2]
  IC50: 7 nM and 7.4 nM
[3]
  EC50: 740 ± 1100 nM
